Experiment [1] addresses Methylcytosine dioxygenase TET1 (Mus musculus, UniProt Q3URK3).
Experiment [2] deals with T1, Methylcytosine dioxygenase TET2 (Homo sapiens, UniProt Q6N021). Briefly: biochemical.
Experiment [3] deals with T1, Methylcytosine dioxygenase TET2. The note with it: sf9.

Protein sequences, listed by entry. Tags and fused reporters are not part of them. Lines headed by an entry give the natural chain unless they say otherwise; changes in a name come on top.
UniProt Q3URK3: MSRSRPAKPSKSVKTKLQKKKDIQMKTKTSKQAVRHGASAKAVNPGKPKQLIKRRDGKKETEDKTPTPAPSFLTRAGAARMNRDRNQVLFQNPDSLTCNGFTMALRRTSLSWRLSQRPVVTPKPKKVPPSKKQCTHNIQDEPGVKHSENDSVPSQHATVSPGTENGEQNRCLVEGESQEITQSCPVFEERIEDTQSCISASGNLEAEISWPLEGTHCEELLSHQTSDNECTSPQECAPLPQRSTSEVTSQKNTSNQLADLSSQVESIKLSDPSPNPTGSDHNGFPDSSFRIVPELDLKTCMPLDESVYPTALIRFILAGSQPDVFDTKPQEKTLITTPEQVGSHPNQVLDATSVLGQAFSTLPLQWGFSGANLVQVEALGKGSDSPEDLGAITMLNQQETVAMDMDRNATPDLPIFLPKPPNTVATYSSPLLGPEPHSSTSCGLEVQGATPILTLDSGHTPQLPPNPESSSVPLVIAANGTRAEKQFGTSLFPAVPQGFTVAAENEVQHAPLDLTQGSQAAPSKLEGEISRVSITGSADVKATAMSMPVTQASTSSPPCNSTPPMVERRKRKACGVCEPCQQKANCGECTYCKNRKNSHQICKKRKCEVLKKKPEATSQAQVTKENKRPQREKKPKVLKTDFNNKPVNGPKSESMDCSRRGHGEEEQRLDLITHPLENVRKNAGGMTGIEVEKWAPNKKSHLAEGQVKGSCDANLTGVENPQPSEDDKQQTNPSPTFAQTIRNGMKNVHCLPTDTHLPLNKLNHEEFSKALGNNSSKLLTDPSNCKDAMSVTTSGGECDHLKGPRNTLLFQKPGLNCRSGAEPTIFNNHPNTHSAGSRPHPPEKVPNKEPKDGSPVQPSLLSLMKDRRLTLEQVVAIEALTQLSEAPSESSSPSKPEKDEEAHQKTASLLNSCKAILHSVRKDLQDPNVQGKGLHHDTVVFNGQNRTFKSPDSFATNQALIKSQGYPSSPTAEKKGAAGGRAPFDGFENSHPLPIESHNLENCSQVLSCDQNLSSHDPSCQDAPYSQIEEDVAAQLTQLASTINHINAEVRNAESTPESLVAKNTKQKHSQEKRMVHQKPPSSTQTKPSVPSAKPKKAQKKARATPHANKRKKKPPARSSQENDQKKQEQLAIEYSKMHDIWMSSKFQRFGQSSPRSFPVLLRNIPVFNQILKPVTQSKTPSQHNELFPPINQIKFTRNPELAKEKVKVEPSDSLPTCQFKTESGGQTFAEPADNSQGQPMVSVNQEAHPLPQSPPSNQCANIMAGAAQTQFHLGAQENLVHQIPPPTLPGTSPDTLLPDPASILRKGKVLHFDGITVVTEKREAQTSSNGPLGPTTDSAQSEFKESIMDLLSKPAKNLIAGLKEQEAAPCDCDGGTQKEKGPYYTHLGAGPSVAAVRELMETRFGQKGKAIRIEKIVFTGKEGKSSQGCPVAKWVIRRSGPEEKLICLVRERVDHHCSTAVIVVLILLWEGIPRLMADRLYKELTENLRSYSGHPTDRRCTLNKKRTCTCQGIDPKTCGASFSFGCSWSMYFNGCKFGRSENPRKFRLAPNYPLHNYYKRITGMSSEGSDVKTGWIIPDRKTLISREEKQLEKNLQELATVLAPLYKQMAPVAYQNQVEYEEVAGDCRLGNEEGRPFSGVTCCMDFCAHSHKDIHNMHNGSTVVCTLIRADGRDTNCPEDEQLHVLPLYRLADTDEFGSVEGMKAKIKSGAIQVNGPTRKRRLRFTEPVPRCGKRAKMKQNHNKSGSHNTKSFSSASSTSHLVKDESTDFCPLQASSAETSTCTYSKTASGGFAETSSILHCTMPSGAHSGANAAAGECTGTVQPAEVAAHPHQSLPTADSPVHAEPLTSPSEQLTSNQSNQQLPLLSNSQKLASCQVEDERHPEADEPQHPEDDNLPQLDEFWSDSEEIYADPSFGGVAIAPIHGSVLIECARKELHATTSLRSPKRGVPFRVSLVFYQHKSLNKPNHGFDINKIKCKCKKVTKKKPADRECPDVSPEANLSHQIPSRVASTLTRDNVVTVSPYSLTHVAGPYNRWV

The text below walks through data of ChEMBL document CHEMBL5335800, “Focused Screening Identifies Different Sensitivities of Human TET Oxygenases to the Oncometabolite 2-Hydroxyglutarate” (J Med Chem, 2024).

Bounds are passed on as bounds.

Broadly, the IC50 is the point on the concentration scale where inhibition reaches its midpoint. A lower IC50 goes with greater potency in that assay. As for `O=C(O)CC[C@@H](O)C(=O)O`, the half-maximal inhibitory concentration (IC50) in experiment [1] came out at 4000 µM.

Turning to `Cc1nc(C(=O)NCC(=O)O)c(O)c2ccc(Oc3ccccc3)cc12` [ROXADUSTAT], the concentration for half-maximal inhibition (IC50) in experiment [2] and in experiment [3] was at least 100 µM throughout.
